The source of these data is ChEMBL document CHEMBL4346735, “Discovery and pharmacological evaluation of indole derivatives as potent and selective RORγt inverse agonist for multiple autoimmune conditions” (Bioorg Med Chem Lett, 2019).

Amino acid sequences for entries named in this document (tags omitted). A change or cut given only in a name is not applied to a line headed by its entry.
UniProt P51449: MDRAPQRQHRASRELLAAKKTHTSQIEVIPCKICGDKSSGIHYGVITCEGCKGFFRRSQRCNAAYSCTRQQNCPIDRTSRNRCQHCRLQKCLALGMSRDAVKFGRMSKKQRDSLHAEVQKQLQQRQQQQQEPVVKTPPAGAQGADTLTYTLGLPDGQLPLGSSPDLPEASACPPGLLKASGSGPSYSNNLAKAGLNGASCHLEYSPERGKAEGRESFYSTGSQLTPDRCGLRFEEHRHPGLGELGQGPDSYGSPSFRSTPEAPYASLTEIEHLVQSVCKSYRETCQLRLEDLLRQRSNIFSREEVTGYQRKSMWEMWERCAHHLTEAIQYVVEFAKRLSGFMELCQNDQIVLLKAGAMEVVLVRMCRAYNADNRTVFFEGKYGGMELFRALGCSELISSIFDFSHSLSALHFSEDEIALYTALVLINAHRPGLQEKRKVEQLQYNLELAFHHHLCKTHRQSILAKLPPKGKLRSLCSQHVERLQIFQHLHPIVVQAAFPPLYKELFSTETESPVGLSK

Test [1] deals with T1, Nuclear receptor ROR-gamma (Homo sapiens, UniProt P51449). Description: Transactivation of recombinant GAL4-DBD fused RORgammat LBD (unknown origin) expressed in HEK293T cells incubated for 18 to 24 hrs by dual-Glo luciferase assay. The test is classed as cell-based.
Test [2] has as its target T1, Nuclear receptor ROR-gamma. In words: Inverse agonist activity at GST-tagged RORgammat LBD (unknown origin) using fluorescein-D22 co-activator peptide as substrate incubated for 1 hr by TR-FRET assay. In general terms: TR-FRET usually uses a lanthanide donor and a delayed reading to cut background.

Each structure is given as a SMILES string.

One may read the IC50 as the concentration needed to halve the response being measured. Regarding `O=C(O)c1ccc(-n2cc(C(=O)c3c(Cl)cccc3C(F)(F)F)c3ccccc32)cc1`, the IC50 in test [1] amounted to 37 nM.
Turning to `O=C(O)c1ccc(-n2cc(C(=O)c3c(Cl)cccc3C(F)(F)F)c3cccc(F)c32)cc1`, the IC50 in test [1] is 10 nM; in test [2] it was 2 nM.
